Among all 210,000 compounds or so, about 880 (0.42%) were called active. The sample as a whole holds a higher share of actives than the screen did. A number with no mark means an inactive call.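 Rule for the calls: active = replicate mean at 85% of control or lower with very high polarization wells dropped (limit read from the data); inactive = the rest.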

The chains behind the UniProt entries cited, without tags or fusion partners.
UniProt P08753, whole entry, looked up: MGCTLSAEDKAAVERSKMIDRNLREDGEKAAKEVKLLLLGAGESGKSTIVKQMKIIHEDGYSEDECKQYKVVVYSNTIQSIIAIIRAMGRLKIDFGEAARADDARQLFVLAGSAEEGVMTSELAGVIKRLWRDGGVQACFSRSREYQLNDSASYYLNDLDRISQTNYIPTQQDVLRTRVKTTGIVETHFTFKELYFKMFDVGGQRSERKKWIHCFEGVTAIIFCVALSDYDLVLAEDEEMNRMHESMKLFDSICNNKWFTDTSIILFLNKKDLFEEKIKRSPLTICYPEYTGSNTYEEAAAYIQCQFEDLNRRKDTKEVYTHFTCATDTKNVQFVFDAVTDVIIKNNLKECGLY

The target in the assay is Guanine nucleotide-binding protein G(i) subunit alpha-3 (Rattus norvegicus) (UniProt P08753). Briefly: inhibitors of GIV peptide binding to Galpha-i3, primary screen, biochemical, fluorescence polarization, FITC-GIV GBA peptide, rat Galphai3 (AID 1224905). The note with it: 90 min, stronger effect = lower value, scaled: aluminum fluoride 0%, vehicle 100%.
As to `O=C(NCc1ccco1)c1cc2nc(-c3ccc(Cl)c(Cl)c3)cc(C(F)(F)F)n2n1`, the percent of control (FP) was 101%.

With `Cn1c(=O)n(C)c2cc(N3CCOCC3)c(NS(=O)(=O)c3ccc4c(c3)CCCC4)cc21`, the percent of control (FP) is 103%.

As for `O=C(O)c1cc(NS(=O)(=O)c2ccc3c(c2)CCCC3)cnc1N1CCOCC1`, the percent of control (FP) was 80.8% (active).

Take `O=C(O)c1cc(NS(=O)(=O)c2cc(F)ccc2F)cnc1N1CCC(N2CCCCC2)CC1`: the percent of control (FP) is 93.7%.

For the molecule `O=C(CSc1nnc(C2COc3ccccc3O2)n1-c1ccccc1)c1cccc([N+](=O)[O-])c1` (stereo not given), the percent of control (FP) is 99.2%.

As for `Cc1cc(Br)ccc1N1C(=O)NC(=O)/C(=C/c2cn(CC(=O)N3CCOCC3)c3ccccc23)C1=O`, the percent of control (FP) is 103%.

Regarding `COc1ccccc1N1C(=O)NC(=O)/C(=C/c2cn(C(C)=O)c3ccccc23)C1=O`, the percent of control (FP) is 118%.

Consider `COCCNC(=O)Cn1cc(/C=C2\C(=O)NC(=O)N(C3CCCCC3)C2=O)c2ccccc21`, for which the percent of control (FP) is -38.3% (active).

Turning to `NC(=O)c1nsc2c(=O)n(CC(=O)NCc3ccco3)cnc12`, the percent of control (FP) is 95.4%.

In the case of `CCOC(=O)c1c(NC(=S)NC(=O)c2ccccc2)sc2c1CC(C)(CC)OC2` (stereo not given), the percent of control (FP) was 107%.

With `Cc1cc(C)c2[nH]c(=O)c(NC(N)=S)nc2c1`, the percent of control (FP) was 109%.

For `Cc1c(C(=O)NCC2COc3ccccc3O2)sc2ncnc(N3CCCCC3C)c12` (stereo not given), the percent of control (FP) is 103%.

`COc1ccccc1N(Cc1nc2nc(C)cc(C)n2n1)C(=O)C(C)(C)C`: the percent of control (FP) is 105%.

As to `COc1cc(-c2noc(-c3cc(-c4cc(C)ccc4C)n[nH]3)n2)ccc1OC(C)C`, the percent of control (FP) was 109%.

Take `O=C(NCc1ccc2c(c1)OCO2)C1CCCN(S(=O)(=O)N2CCOCC2)C1` (stereo not given): the percent of control (FP) is 105%.

Regarding `O=C(O)CCC(C(=O)O)N1C(=O)/C(=C\c2ccco2)SC1=S` (stereo not given), the percent of control (FP) is 79.9% (active).

For the molecule `CN1CCN(NC(=O)CCN2C(=O)/C(=C\c3ccco3)SC2=S)CC1`, the percent of control (FP) was 106%.

Take `CN1C(=O)/C(=C/c2ccco2)SC1=Nc1cccc(C(=O)O)c1`: the percent of control (FP) was 103%.

Turning to `COc1ccc(S(=O)(=O)N2CCC(NC(=O)NCc3ccc(C)cc3)CC2)cc1`, the percent of control (FP) is 98.6%.

`O=C(NCCCN1CCC(N2CCCCC2)CC1)c1nnc(C(=O)Nc2ccccc2)s1`: the percent of control (FP) is 101%.

With `O=C(CCc1ccccc1)N1CCN(C(=O)c2cc3cc(Br)ccc3[nH]2)CC1`, the percent of control (FP) was 108%.

As to `CN1C=C/C(=C\C=C2/C=Nc3ccccc32)c2ccccc21`, the percent of control (FP) was -76.3% (active).

For `CCCCN(CCCNC(=O)Nc1cn(CC(C)C)c(=O)c2ccccc12)Cc1ccccc1`, the percent of control (FP) is 98.7%.

For `COc1ccc(S(=O)(=O)Nc2cc(C(=O)O)cnc2N2CCC(Cc3ccccc3)CC2)cc1`, the percent of control (FP) is 102%.

As to `COC(=O)COc1ccc(/C=C2\C(=O)NC(=S)N(c3ccc(Br)cc3)C2=O)cc1OC`, the percent of control (FP) is 104%.

On to `COc1ccc(N2C(=O)/C(=C/c3cc(Cl)c(OCC(=O)O)c(Cl)c3)C(=O)NC2=S)cc1`, for which the percent of control (FP) is 94.6%.

Take `Cc1ccc(N2C(=O)/C(=C/c3ccc(OCC(=O)O)c(Br)c3)C(=O)NC2=S)cc1`: the percent of control (FP) was 82.1% (active).

Regarding `Cc1oc(C2CCN(C(=O)Cc3ccsc3)CC2)nc1C(=O)N1CCCC1`, the percent of control (FP) is 99.3%.

Take `CC(C)CC(C(=O)Nc1ccc(Cl)cc1)N1C(=O)c2ccccc2C1=O` (stereo not given): the percent of control (FP) is 108%.

`CCOC(=O)c1c(NC(=O)C(C)Sc2nnc(CNC(=O)c3cccs3)n2C2CCCCC2)sc2c1CCCC2` (stereo not given): the percent of control (FP) was 109%.

Regarding `CC[n+]1c(/C=C/C=C2\N(C)c3ccccc3C2(C)C)n(-c2ccccc2)c2ccc(Cl)cc21`, the percent of control (FP) was -32.2% (active).

For `CC[n+]1c(C)n(-c2ccccc2)c2ccc(N)cc21`, the percent of control (FP) is 101%.

As to `COc1ccccc1CNC(=O)C1CCCN1c1nn2c(=O)cc(C)nc2s1` (stereo not given), the percent of control (FP) is 96.8%.

Turning to `O=C(/C=C/c1ccccc1)Nc1cc(C(=O)N2CCc3ccccc3C2)ccc1N1CC2CC(C1)c1cccc(=O)n1C2` (stereo not given), the percent of control (FP) was 108%.

As to `CCN(CC)c1cc(NC2CCCCC2)c2c3c(onc13)-c1ccccc1C2=O`, the percent of control (FP) was -7.19% (active).

As for `CCOC(=O)N1CCN(c2cc(Nc3c(C)cc(C)cc3C)c3c4c(onc24)-c2ccccc2C3=O)CC1`, the percent of control (FP) is 140%.

As for `CCNc1cc(Nc2ccccc2)c2c3c(onc13)-c1ccccc1C2=O`, the percent of control (FP) is 104%.

Regarding `CC1CCN(S(=O)(=O)c2ccc3nn(CC(=O)OC(C)C)c(=O)n3c2)CC1`, the percent of control (FP) was 103%.

For the molecule `COc1ccccc1-c1c(C(F)(F)F)oc2c(CN3CCN(C)CC3)c(O)ccc2c1=O`, the percent of control (FP) was 102%.

`Cc1nn(CCC(=O)NC2CCCC2)c(=O)c2nn(-c3ccccc3)c(C)c12`: the percent of control (FP) was 98.5%.

On to `CC(=O)Nc1ccc(NS(=O)(=O)c2cc(S(=O)(=O)Nc3ccc(NC(C)=O)cc3)c3cccc4c3c2NC4=O)cc1`, for which the percent of control (FP) was 108%.

As to `CC(C)c1ccc(NC(=O)c2ccc3c(O)c(S(=O)(=O)c4ccccc4)c(=O)[nH]c3c2)cc1`, the percent of control (FP) was 98.9%.

On to `CC(=O)Nc1ccc(Nc2c3c4c(cccc4[nH]c2=O)C(=O)c2ccccc2-3)cc1`, for which the percent of control (FP) was 60.9% (active).

As for `CCC(C)OC(=O)C1=C(C)NC2=C(C(=O)CC(c3ccc(OC)cc3)C2)C1c1cc2c(cc1[N+](=O)[O-])OCO2` (stereo not given), the percent of control (FP) is 103%.

Turning to `CCCCc1nnc2sc(-c3cccc(N(C)C)c3)nn12`, the percent of control (FP) is 97.3%.

In the case of `Cc1nn(C)c(C)c1CCN(C)C(=O)Nc1ccc(Br)cc1F`, the percent of control (FP) was 105%.

In the case of `COc1ccc(-n2ccc(=O)c(-c3nc(-c4ccc(F)c(Cl)c4)no3)n2)cc1`, the percent of control (FP) was 102%.

As for `Fc1cccc(CNC2=NCCNC23CCCCCC3)c1`, the percent of control (FP) is 112%.

With `COC1=C(N2CCOCC2)C(=O)c2ccccc2C1=O`, the percent of control (FP) is 81.8% (active).

`Cc1cc(N2CCOCC2)ccc1C=C1C(=O)c2ccccc2C1=O`: the percent of control (FP) was 123%.

As for `COc1ccc(N2CCN(C(C)=C3C(=O)c4ccccc4C3=O)CC2)cc1`, the percent of control (FP) is 97.8%.

In the case of `Nc1nc(=O)n(C2OC(CO)C(O)C2O)cc1Br` (stereo not given), the percent of control (FP) is 107%.

`CCN1CCN(Cc2c(O)ccc3c(=O)c(Oc4ccccc4Br)c(C(F)(F)F)oc23)CC1`: the percent of control (FP) was 96.7%.

`Cn1nc(-c2ccccc2F)c2cc(C(=O)Oc3ccc4cnccc4c3)sc21`: the percent of control (FP) is 109%.

With `N#CC1=C2Sc3ccccc3N2CC1=O`, the percent of control (FP) is -54.5% (active).

For the molecule `CCOC(=O)c1[nH]c(=O)[nH]c1CSc1nnc(SCc2[nH]c(=O)[nH]c2C(=O)OCC)s1`, the percent of control (FP) is 118%.

As for `N#CSc1cc(SC#N)c(N)nc1N`, the percent of control (FP) was 16% (active).

For the molecule `COc1cccc(N/C(SCc2ccccc2C)=C(/C#N)C(=O)NCCc2ccc(OC)c(OC)c2)c1`, the percent of control (FP) was 104%.

Take `CCC(C)OC(=O)C1=C(C)NC(=O)NC1c1ccc(OC)c(OCc2ccccc2)c1` (stereo not given): the percent of control (FP) is 99.4%.

Take `COc1cc(C=C2C(=O)NC(=O)NC2=O)cc(Cl)c1OCCOc1ccc(C)cc1`: the percent of control (FP) was 103%.

As for `CCOc1cc(/C=C2/C(=O)N(c3nn[nH]n3)N=C2C)cc(Cl)c1OCC`, the percent of control (FP) was 74.3% (active).

`CCOC(=O)c1ccc(N2N=C(C(F)(F)F)/C(=C/c3cc(Cl)c(O)c(OC)c3)C2=O)cc1`: the percent of control (FP) was 109%.

With `O=C(C1CCN(c2nc(-c3ccc(Cl)cc3)no2)CC1)N1CCC(N2CCCCC2)CC1`, the percent of control (FP) was 104%.

As to `CCSCCOC(=O)C1=C(C)N(C)C(=O)NC1c1ccccc1OCc1ccccc1` (stereo not given), the percent of control (FP) is 104%.

Turning to `c1csc(Nc2nc3cc4c(cc3s2)OCO4)n1`, the percent of control (FP) was -40.2% (active).

Take `c1c2c(cc3sc(N4CCCCC4)nc13)OCCO2`: the percent of control (FP) was 101%.

For `CC(=O)N(CCN(C)C)c1nc2cc3c(cc2s1)OCO3`, the percent of control (FP) was 100%.

For `O=C(CCn1nnc2cc(S(=O)(=O)N3CCCC3)ccc21)N1CCN(c2ccccn2)CC1`, the percent of control (FP) was 112%.

As for `Cc1c(CNCCc2ccc(S(N)(=O)=O)cc2)c(C(=O)O)c(C)n1Cc1ccc(F)cc1`, the percent of control (FP) was 98.6%.

For `CC1(C)C2CCC1(CS(=O)(=O)Nc1cc(C(=O)N3CCOCC3)ccc1N1CC3CC(C1)c1cccc(=O)n1C3)C(=O)C2` (stereo not given), the percent of control (FP) was 106%.

With `O=C(O)c1cc(N2C(=O)C3C4C=CC(CO)(O4)C3C2=O)ccc1Cl` (stereo not given), the percent of control (FP) was 103%.

As to `CCN(CC)c1ccc2cc(C(=O)NC(C)=O)c(=Nc3ccccc3OC)oc2c1`, the percent of control (FP) was 114%.

As for `CCN(CC)c1ccc2cc(C(=O)NC(C)=O)c(=Nc3ccc(F)cc3F)oc2c1`, the percent of control (FP) is 117%.

As to `CCN(CC)c1ccc2cc(C(N)=O)/c(=N\NC(=O)c3ccccc3)oc2c1`, the percent of control (FP) is -46.7% (active).

For the molecule `O=S(=O)(NCc1ccco1)c1ccc(Cl)cc1`, the percent of control (FP) is 101%.

Regarding `Cc1ccc2ccc3cc(C(=O)NC4CCCC4)nc3c2[nH]1`, the percent of control (FP) is 112%.

On to `O=C1/C(=C/c2ccc(Br)cc2)C=C(c2ccccc2)N1c1ccccc1Br`, for which the percent of control (FP) is 119%.

`COc1ccccc1N1C(=O)/C(=C/c2ccc(Cl)cc2)C=C1c1ccccc1`: the percent of control (FP) was 78.1% (active).

On to `O=C1/C(=C/c2ccc([N+](=O)[O-])cc2)C=C(c2ccccc2)N1c1cccc(Cl)c1Cl`, for which the percent of control (FP) is 109%.

Take `CC(C)NC(=O)C1=CC(c2ccco2)=NS(=O)(=O)N1C`: the percent of control (FP) was 107%.

Consider `Cc1[nH]c(C(=O)Nc2ccc(F)cc2)c(C)c1S(=O)(=O)N1CCCC1`, for which the percent of control (FP) was 112%.

`Cc1cc(C)nc(NS(=O)(=O)c2ccc(NC(=O)C(C)Oc3ccc(Cl)cc3Cl)cc2)n1` (stereo not given): the percent of control (FP) was 111%.

With `CC1=NOC(=O)C1C(c1cccc(Br)c1)c1c(C)[nH]n(-c2ccccc2)c1=O` (stereo not given), the percent of control (FP) is 48.2% (active).

On to `Cc1[nH]n(-c2ccccc2)c(=O)c1C(c1ccc(C(F)(F)F)cc1)c1c(C)[nH]n(-c2ccccc2)c1=O`, for which the percent of control (FP) is 92.3%.

Regarding `COc1ccc(C(=O)Oc2ccc(C(c3c(C)[nH]n(-c4ccccc4)c3=O)c3c(C)[nH]n(-c4ccccc4)c3=O)cc2)cc1`, the percent of control (FP) is 111%.

Values taken from PubChem BioAssay AID1224905 (ICCB-Longwood Screening Facility, Harvard Medical School, 2016).
